Laboratory results reported in patent publication US20170306050.

Sequences of proteins named here, by UniProt entry; tags and fusion partners are left off.
α1-antitrypsin, P01009, UniProt P01009, whole entry, looked up: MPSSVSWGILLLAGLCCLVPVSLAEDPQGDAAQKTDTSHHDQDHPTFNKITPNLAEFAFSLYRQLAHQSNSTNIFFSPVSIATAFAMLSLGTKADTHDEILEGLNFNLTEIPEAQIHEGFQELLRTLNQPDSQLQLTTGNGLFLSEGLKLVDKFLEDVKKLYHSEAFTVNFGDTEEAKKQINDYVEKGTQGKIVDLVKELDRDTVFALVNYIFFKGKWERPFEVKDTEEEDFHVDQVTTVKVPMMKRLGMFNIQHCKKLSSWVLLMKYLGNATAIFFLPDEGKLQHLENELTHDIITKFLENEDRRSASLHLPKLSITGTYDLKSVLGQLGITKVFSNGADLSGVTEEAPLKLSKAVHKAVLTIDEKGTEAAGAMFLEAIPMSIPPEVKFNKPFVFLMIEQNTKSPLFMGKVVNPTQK

Target: α1-antitrypsin, P01009

B1: human neutrophil elastase (protein)
chain: IVGGRRARPHAWPFMVSLQLRGGHFCGATLIAPNFVMSAAHCVANVNVRAVRVVLGAHNLSRREPTRQVFAVQRIFENGYDPVNLLNDIVILQLNGSATINANVQVAQLPAQGRRLGNGVQCLAMGWGLLGRNRGIASVLQELNVTVVTSLCRRSNVCTLVRGRQAGVCFGDSGSPLVCNGLIHGIASFVRGGCASGLYPDAFAPVAQFVNWIDSIIQ
elastin cleavage fluorescence: Intact α1-antitrypsin inhibited neutrophil elastase, indicated by a lack of elastin fluorescence
